Reference: US7344850B2, “Identification of active-site inhibitors of glycosyltransferases using a generalizable high-throughput screen” (Princeton University, priority 2003, dated 2008)

Chains of the proteins cited; added tags and fusions are not shown. Lines headed by an entry give the natural chain unless they say otherwise; changes in a name come on top.
UniProt P0A749: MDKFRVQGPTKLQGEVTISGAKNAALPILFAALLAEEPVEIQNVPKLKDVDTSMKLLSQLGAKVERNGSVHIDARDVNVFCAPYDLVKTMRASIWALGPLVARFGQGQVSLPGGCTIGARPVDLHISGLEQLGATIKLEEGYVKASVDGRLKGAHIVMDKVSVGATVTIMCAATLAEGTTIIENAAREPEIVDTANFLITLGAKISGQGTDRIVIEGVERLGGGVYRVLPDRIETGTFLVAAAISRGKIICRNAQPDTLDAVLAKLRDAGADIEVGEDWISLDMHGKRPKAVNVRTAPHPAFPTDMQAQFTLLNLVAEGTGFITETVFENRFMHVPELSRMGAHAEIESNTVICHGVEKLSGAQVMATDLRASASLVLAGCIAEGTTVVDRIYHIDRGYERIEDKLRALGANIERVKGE

Target: MurA (UniProt P0A749)
Assay: Assay of MurA
Details: read-out: IC50 MurA

SMILES	IC50 [µM]
CC1CCN(CN2C(=O)/C(=C\c3ccc(C(C)(C)C)cc3)SC2=S)CC1 [Compound 1, 5-(4-tert-Butyl-benzylidene)-3-(4-methyl-piperidin-1-ylmethyl)-2-thioxo-thiazolidin-4-one]	> 100
O=C(O)CN1C(=O)/C(=C\c2cc(Cl)cc(Br)c2O)SC1=S [Compound 2]	> 100
O=C1/C(=C2/C(=O)N(Cc3ccccc3)c3ccc(Br)cc32)SC(=S)N1CCS(=O)(=O)O [Compound 3]	> 100
O=C1NC(=O)N(c2ccc(Cl)cc2)C(=O)/C1=C/c1ccc(Br)o1 [Compound 4]	> 100
Cc1cc(/C=C2\C(=O)NC(=S)N(c3cccc(Cl)c3)C2=O)c(C)n1-c1cc(C(=O)O)cc(C(=O)O)c1 [Compound 5]	> 100
CC(C)(C)c1ccc(OCCOc2cccc(C=C3C(=O)NC(=S)NC3=O)c2)cc1 [Compound 6]	> 100
O=C(O)c1ccc(N2C(=O)/C(=C/c3ccc(-c4ccc(Br)cc4)o3)C=C2c2ccccc2)cc1 [Compound 7]	> 100
